Experimental data published in US9562060B2, “Heterocyclic pyridone compound, and intermediate, preparation method and use thereof” (SHANGHAI HUILUN LIFE SCIENCE & TECHNOLOGY CO., LTD, priority 2011, dated 2017).

Protein sequences, listed by entry. Tags and fused reporters are not part of them. Residues count along the entry.
UniProt P08581, 25-1390 limits assumed: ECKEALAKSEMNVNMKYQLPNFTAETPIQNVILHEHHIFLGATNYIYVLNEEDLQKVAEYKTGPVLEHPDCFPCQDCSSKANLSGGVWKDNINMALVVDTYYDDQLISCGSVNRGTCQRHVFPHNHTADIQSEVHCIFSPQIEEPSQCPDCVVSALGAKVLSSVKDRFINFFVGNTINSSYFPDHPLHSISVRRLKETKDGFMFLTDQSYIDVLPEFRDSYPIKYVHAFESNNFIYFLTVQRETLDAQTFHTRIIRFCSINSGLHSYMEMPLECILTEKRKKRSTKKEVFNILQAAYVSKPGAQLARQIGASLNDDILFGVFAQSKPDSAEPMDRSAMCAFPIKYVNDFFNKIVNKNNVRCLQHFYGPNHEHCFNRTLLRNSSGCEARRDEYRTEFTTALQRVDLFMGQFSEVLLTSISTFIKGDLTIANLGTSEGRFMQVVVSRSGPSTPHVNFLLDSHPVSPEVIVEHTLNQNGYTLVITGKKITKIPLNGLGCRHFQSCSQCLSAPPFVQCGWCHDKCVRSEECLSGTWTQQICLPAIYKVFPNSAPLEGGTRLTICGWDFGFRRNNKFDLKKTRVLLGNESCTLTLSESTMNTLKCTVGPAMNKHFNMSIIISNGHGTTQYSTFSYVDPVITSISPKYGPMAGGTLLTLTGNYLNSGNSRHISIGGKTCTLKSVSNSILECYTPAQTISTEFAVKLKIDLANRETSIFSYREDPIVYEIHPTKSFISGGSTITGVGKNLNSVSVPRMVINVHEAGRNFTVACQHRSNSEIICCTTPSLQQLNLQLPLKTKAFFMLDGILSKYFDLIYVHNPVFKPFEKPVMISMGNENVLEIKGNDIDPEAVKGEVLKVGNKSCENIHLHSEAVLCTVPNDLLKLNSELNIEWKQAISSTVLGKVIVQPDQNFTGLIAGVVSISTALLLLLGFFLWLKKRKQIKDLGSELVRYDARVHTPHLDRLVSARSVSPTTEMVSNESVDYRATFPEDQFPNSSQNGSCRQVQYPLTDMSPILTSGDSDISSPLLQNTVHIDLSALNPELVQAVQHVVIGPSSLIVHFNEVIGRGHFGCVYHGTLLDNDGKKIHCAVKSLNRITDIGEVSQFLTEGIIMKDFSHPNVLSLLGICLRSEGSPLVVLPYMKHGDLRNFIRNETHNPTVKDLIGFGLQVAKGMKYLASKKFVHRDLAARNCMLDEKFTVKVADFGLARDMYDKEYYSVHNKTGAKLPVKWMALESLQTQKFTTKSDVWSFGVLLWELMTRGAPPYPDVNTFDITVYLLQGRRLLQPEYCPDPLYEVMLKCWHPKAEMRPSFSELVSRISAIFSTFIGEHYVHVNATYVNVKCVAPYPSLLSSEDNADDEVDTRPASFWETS

Target: c-Met kinase (Homo sapiens, UniProt P08581)
Assay: Inhibitory activity of compound to c-Met kinases (Z'-LYTE kinase assay kit)
Details: read-out: Strength of activity (inhibition on c-Met kinase, IC50), Tyr 6 substrate peptide
Protocol: The inhibitory activity of the compound to c-Met kinases in vitro is determined through the following method.
The method described below can be used to determine the inhibiting capacity of the compound of the present invention on the c-Met kinase activity, and the inhibiting capacity is represented by IC50. The half inhibitory concentration IC50 (a concentration of the compound for inhibiting the enzyme activity to 50%) of the compound is obtained by: mixing and reacting a certain amount of kinase with a specific substrate and different concentrations of test compound, and then labeling the substrate with an anti-phosphotyrosine antibody and a […], and finally quantitatively determining the c-Met kinase activity through a time-resolved fluorescence method.
The specific experiment is implemented by using a Z′-LYTE kinase assay kit (Invitrogen, item PV4122). First, the test compound is diluted into 8 different concentrations from 100 μM at an interval of 1:5 with an ATP solution (Invitrogen, item PV3227); 5 μL 2×c-Met (Invitrogen, item PV3143) and 2×Z′-LYTE Tyr 6 substrate peptide are respectively taken up, and added to a 384-well microtiter plate, 5 μL diluted different concentrations of test compound are added in sequence, and the lid is closed. The microtiter plate is incubated for 60 min at room temperature (20° C. to 25° C.); and then 5 μL […] is added, and the lid is closed. The microtiter plate is incubated for 60 min at room temperature (20° C. to 25° C.); and then 5 μL termination reagent is added to the reaction well, to terminate the reaction. Finally, the fluorescence intensity (OD400) of each well is determined in a fluorescence analyzer (excitation wavelength: 400 nm). The inhibition rate is calculated, and the half inhibitory concentration (IC50) of the compound is calculated according to the inhibition rates of different concentrations.
For a negative control group, except that test compound (replaced by 5 μL ATP solution) is not added, all the other reagents are added. In addition, an enzyme-free control group (that is, blank group) is set.

| IC50 [nM] | Structure (SMILES) |
| --- | --- |
| < 10 | CN(CCO)c1c(C(=O)Nc2ccc(Oc3ccnc(N)c3)c(F)c2)c(=O)n(-c2ccc(F)cc2)c2scnc12 |
| 100 to 1000 | COc1ccc2c(Oc3ccc(NC(=O)c4c(N(C)C)c5ncsc5n(-c5ccc(F)cc5)c4=O)cc3F)ccnc2c1 |
| < 10 | COc1ccc2c(Oc3ccc(NC(=O)c4c(N(C)CCO)c5ncsc5n(-c5ccc(F)cc5)c4=O)cc3F)ccnc2c1 |
| 10 to 100 | CN1CCOc2cc(C(=O)Nc3ccc(Oc4ccnc5[nH]ccc45)c(F)c3)c(=O)n(-c3ccc(F)cc3)c21 |
